{"source": "the supplement of paper PMC7858590", "note": "What follows is the remainder of the data, with few or none of the lowest values."}
{"system": "human monocyte-derived macrophages (M0)", "assay": "cell shape (eccentricity) Z-score vs DMSO control; higher = more elongated, M2-like morphology", "details": "20 µM; 24 h; macrophage state: M0 (M-CSF)", "protocol": "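Primary human monocyte-derived macrophages (M-CSF differentiated, pooled from 4 donors, 5000 cells/well in 384-well plates) were treated with each compound at 20 uM for 24 h, then fixed and stained with phalloidin/DAPI and imaged on an Opera Phenix (6 fields, about 1000 cells/well). Cell eccentricity was measured with CellProfiler, and a Z-score (t-test) was computed against 4 DMSO control wells in the same row. Negative values mean round (M1-like) cells and positive values mean elongated (M2-like) cells; the paper's hit cutoffs are Z <= -4 (M1) and Z >= 6 (M2). Scale: negative = round, M1-like.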"}
{"smiles": "N=C(NCCc1ccc(I)cc1)SCCCc1c[nH]cn1", "cell shape (Z-score)": 0.0237}
